Measured values published in ChEMBL document CHEMBL5107985, “Current progress and novel strategies that target CDK12 for drug discovery” (Eur J Med Chem, 2022).

Test: Inhibition of recombinant Cdc2/CycB (unknown origin)
Parameters: species or system Homo sapiens

- IC50: 4 nM
SMILES: CC(C)[C@H](CO)Nc1nc(Nc2cccc(Cl)c2)c2ncn(C(C)C)c2n1 [PURVALANOLA]
